Experiments:
[1] = system: human whole blood or CLL cells; conditions: within human whole blood or in CLL cells ex vivo; data not shown
[2] = data not shown
CLL cells = conditions: ex vivo; data not shown

Substance: flavopiridol glucuronide [flavo-G]
- Formation of metabolites [1]: nor were these metabolites formed at detectable levels
- Flavo-G deposited into urine as share of total dose of flavopiridol [2]: less than 5%
- Cytotoxicity to CLL cells (CLL cells): not cytotoxic

— paper PMC3845832 (Clinical cancer research : an official journal of the …, 2013)
